Data on 5 molecules can be found in ChEMBL document CHEMBL1123653 (J Med Chem, 1987).

By UniProt entry, the sequences of proteins in these tests, tags left out. Where a name states a change or a piece, a line headed by the entry shows the natural chain unless it says otherwise.
UniProt P30994: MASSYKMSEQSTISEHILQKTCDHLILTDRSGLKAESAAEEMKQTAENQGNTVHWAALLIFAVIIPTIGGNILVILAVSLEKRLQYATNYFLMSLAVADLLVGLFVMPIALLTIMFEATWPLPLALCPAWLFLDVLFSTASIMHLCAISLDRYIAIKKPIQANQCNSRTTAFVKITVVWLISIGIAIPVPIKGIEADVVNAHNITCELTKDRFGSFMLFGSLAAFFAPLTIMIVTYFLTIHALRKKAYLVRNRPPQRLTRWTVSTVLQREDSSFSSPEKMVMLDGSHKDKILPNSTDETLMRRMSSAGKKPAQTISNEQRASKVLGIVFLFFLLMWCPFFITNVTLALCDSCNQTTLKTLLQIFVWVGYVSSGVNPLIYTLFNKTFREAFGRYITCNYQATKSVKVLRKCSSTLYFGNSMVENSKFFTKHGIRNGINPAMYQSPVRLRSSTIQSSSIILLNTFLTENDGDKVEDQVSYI
UniProt P08909: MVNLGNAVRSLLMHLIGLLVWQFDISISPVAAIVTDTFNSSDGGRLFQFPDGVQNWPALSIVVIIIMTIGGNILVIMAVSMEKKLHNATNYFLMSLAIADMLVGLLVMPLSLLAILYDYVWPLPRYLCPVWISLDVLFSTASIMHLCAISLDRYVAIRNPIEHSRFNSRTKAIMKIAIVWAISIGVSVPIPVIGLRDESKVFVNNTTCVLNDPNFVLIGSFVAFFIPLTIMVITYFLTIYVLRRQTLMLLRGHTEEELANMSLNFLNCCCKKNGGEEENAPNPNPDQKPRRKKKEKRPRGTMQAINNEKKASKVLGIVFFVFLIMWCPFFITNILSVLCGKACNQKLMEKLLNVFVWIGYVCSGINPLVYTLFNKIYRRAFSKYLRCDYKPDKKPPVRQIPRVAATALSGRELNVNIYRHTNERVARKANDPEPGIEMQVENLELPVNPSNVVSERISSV
UniProt P14842: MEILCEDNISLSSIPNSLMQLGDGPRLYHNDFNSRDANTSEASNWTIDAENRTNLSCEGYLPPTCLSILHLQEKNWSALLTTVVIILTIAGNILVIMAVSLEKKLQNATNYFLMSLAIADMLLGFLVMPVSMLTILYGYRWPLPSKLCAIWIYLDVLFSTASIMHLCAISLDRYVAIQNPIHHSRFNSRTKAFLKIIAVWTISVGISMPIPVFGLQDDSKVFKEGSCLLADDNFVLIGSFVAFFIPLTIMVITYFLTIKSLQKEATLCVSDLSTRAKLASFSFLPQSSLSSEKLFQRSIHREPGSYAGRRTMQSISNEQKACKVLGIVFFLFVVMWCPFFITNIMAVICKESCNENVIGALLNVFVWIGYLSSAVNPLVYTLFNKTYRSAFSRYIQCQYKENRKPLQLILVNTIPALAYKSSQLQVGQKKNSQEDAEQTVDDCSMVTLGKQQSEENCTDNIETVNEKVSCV
UniProt P19327, whole entry: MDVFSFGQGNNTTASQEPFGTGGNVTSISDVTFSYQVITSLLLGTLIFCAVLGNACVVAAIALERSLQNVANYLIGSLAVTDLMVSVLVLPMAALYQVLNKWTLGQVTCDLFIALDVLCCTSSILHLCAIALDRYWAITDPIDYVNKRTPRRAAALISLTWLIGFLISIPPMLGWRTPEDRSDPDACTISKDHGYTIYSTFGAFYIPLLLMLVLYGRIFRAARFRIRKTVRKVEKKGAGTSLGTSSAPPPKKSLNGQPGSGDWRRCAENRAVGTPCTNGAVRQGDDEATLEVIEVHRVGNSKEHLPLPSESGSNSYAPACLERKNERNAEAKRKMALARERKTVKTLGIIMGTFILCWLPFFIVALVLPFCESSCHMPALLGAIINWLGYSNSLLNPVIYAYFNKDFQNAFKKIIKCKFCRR
UniProt P28564: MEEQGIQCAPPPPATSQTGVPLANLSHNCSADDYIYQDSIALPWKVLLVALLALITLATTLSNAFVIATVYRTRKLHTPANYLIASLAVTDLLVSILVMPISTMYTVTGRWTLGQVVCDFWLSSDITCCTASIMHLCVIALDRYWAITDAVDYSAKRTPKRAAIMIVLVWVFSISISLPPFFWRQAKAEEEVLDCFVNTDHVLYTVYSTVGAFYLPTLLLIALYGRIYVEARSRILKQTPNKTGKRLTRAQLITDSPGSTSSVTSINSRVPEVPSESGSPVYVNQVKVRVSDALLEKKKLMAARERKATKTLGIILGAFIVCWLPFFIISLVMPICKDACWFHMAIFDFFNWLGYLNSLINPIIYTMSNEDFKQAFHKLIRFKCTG
UniProt P30940: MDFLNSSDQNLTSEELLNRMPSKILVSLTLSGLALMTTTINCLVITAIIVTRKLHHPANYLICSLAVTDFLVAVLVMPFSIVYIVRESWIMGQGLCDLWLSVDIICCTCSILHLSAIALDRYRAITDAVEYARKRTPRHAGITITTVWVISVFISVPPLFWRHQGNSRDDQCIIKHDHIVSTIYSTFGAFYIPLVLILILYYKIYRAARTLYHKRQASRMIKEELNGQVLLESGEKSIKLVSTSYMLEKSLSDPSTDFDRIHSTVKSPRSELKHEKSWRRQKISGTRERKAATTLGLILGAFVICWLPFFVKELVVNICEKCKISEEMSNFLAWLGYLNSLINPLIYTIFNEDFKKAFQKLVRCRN
UniProt P28565: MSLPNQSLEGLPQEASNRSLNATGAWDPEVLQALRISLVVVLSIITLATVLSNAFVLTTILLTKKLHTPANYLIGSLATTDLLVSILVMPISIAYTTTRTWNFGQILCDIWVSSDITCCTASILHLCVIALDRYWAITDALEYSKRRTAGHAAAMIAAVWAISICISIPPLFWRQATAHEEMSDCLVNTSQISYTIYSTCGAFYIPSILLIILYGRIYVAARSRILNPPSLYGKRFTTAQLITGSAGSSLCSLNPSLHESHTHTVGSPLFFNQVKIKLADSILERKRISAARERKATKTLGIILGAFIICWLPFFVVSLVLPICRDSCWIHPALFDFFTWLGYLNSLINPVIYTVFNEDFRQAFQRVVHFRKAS

Structures are written as SMILES.

Assay [1] deals with T1, Serotonin 2 (5-HT2) receptor (Rattus norvegicus, UniProt P30994+P08909+P14842). The experiment in a line: Binding affinity to rat cortical membranes at 5-hydroxytryptamine 2 receptor binding site by using [3H]- DOB as a radioligand.
Assay [2] has as its target T1, Serotonin 2 (5-HT2) receptor. The experiment in a line: Binding affinity to rat cortical membranes at 5-hydroxytryptamine 2 receptor binding site by using [3H]- DOB as a radioligand.
Assay [3] has the same target.
The target is the same in assay [4]. This is another data set of the same source.
Assay [5] addresses 5-hydroxytryptamine receptor 1A (Rattus norvegicus, UniProt P19327).
The target of assay [6] is Serotonin 1 (5-HT1) receptor (Rattus norvegicus, UniProt P28564+P30940+P19327+P28565).

By Ki is commonly meant a measure of affinity in units of concentration, obtained from inhibition or displacement. A higher Ki goes with weaker binding. In the case of `COc1ccc2[nH]cc(CCN)c2c1` [5-METHOXYTRYPTAMINE], the Ki in assay [1] came out at 14 nM; in assay [2] it was 14 nM; in assay [3], 2570 nM; in assay [4], 690 nM.
In the case of `COc1ccc2[nH]cc(CCN(C)C)c2c1` [MEBUFOTENIN], the Ki in assay [3] worked out at 390 nM; in assay [4], 1200 nM.
`COc1ccc2[nH]cc(C3=CCNCC3)c2c1` [RU-24969]: the Ki was determined as 5 nM in assay [5] and 2 nM in assay [6].
`NCCc1c[nH]c2ccc(O)cc12` [SEROTONIN] had a Ki in assay [5] of 3 nM.
Take `O=C(CCCN1CCC2(CC1)C(=O)NCN2c1ccccc1)c1ccc(F)cc1` [SPIPERONE]: the figures for the Ki in assay [1] and in assay [4] were 1 nM and 2 nM, respectively.
